Data on three compounds can be found in patent publication US9957264B2 (Merck Sharp & Dohme Corp., priority 2013, dated 2018).

Chains of the proteins cited; added tags and fusions are not shown. Residues count along the entry.
UniProt O60674, 849-1124 limits assumed: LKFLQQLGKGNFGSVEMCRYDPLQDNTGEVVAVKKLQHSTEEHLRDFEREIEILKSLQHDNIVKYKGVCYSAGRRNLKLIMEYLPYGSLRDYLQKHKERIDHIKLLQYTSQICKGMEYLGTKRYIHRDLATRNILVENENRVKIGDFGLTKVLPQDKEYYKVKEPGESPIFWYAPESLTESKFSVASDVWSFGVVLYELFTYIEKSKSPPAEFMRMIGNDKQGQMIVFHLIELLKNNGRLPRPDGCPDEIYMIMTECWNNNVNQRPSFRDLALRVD
UniProt P23458, 875-1153 limits assumed: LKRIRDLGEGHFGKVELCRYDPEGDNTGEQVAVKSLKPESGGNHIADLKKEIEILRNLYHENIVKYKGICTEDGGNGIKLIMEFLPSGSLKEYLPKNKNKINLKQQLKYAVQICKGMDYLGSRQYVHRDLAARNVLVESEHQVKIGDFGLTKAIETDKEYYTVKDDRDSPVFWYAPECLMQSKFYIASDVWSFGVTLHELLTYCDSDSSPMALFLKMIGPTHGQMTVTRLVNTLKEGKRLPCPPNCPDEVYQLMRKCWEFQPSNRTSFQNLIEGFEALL

Experiment [1] addresses JAK2 (recombinant purified GST-tagged catalytic domain) (Homo sapiens (Human), UniProt O60674). The experiment can be described thus: Jak Biochemical HTRF Assay (JAK2). Particulars: read-out: JAK2 IC50, [ATP] 8.5 μM. A general note: TR-FRET usually uses a lanthanide donor and a delayed reading to cut background.
Experiment [2] deals with JAK1 (recombinant purified GST-tagged catalytic domain) (Homo sapiens (Human), UniProt P23458). The experiment is described as follows: Jak Biochemical HTRF Assay (JAK1). Particulars: read-out: JAK1 IC50, [ATP] 31.8 μM. How it is done: Jak Biochemical HTRF Assay Protocol
The ability of compounds to inhibit the activity of JAK1, JAK2, JAK3, and Tyk2 was measured using a recombinant purified GST-tagged catalytic domain for each enzyme (Invitrogen JAK1 #M4290, JAK2 #M4290, JAK3 #M4290, Tyk2 #M4290) in an HTRF format biochemical assay. The reactions employed a common peptide substrate, LCB-[…]-NH2 (in-house). The basic assay protocol is as follows: First, 250 nL of diluted compounds in DMSO were dispensed into the wells of a dry 384-well Black plate (Greiner #781076) using a Labcyte Echo 555 acoustic dispenser. Subsequent reagent additions employed an Agilent Bravo. Next, 18 μL of 1.11× enzyme and 1.11× substrate in 1× assay buffer (Invitrogen kinase buffer #PV3189, 2 mM DTT, 0.05% BSA) were added to the wells and shaken and then preincubated for 30 minutes at room temperature to allow compound binding to equilibrate. After equilibration, 2 μL of 10×ATP in 1× assay buffer was added to initiate the kinase reaction and the plates were shaken and then incubated at room temperature for 120 minutes. At the end of the incubation, 20 μL of 2× stop buffer (streptavidin-Dylight 650 (Thermo #84547B/100 mL), Eu-tagged pY20 antibody (Perkin Elmer #AD0067), EDTA, HEPES, and Triton) was added to quench the reaction. Plates were shaken and centrifuged and then incubated 60 minutes at room temperature and then read on a Perkin Elmer Envision (λex=337 nm, λem=665 and 615 nm, TRF delay time=20 μs). HTRF signal=10,000*665 nm reading/615 nm reading. After normalization to untreated controls, the percent inhibition of the HTRF signal at each compound concentration was calculated. The plot of percent inhibition versus the log of compound concentration was fit with a 4-parameter dose response equation to calculate IC50 values.
Final reaction conditions were:
Examples of the instant invention were evaluated in JAK1 and JAK2 in vitro binding assays as described above. The following table tabulates the JAK1 IC50 values and JAK2 IC50 values disclosed for the instant invention.

In general, IC50 refers to the concentration that gives 50% inhibition.

As for `Cc1cc(Nc2nn([C@]3(CC#N)CCCOC3)c3cc[nH]c(=O)c23)ccc1C(=O)N1CCC(F)(F)CC1`, the 50% inhibitory concentration (IC50) amounted to 0.71 nM in experiment [1] and 0.3 nM in experiment [2].
With `COC(=O)N1CCC(CC#N)(n2nc(Nc3ccc(S(=O)(=O)N(C)C)cc3)c3c(=O)[nH]ccc32)CC1`, the half-maximal inhibitory concentration (IC50) in experiment [1] was 0.26 nM; in experiment [2], 0.13 nM.
For `CN(C)S(=O)(=O)c1ccc(Nc2nn(C3(CC#N)CCN(S(=O)(=O)CC(F)(F)F)CC3)c3cc[nH]c(=O)c23)cc1` the same measures were 0.18 nM and 0.09 nM.
